Publication PMC3711080 (Bioconjugate chemistry, 2011)

By UniProt entry, the sequences of proteins in these tests, tags left out.
UniProt P61073, whole entry: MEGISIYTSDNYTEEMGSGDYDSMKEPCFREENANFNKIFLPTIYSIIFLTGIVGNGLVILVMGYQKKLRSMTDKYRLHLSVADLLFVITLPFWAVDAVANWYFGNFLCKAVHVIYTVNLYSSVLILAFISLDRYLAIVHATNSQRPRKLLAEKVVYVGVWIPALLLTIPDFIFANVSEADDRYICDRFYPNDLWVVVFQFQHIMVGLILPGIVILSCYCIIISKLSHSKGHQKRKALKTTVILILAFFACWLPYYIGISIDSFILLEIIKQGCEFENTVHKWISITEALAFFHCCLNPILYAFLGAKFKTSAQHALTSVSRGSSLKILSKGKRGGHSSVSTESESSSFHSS

Molecular target: chemokine receptor 4 (CXCR4) (human (endogenous in MDAMB231)) (UniProt P61073)
Assay: flow cytometry on cells

pKd | Substance
8.06 | Ac-TZ14011 (peptide)
6.91 | Ac-TZ14011-DTPA (peptide)

pKd: −log10 of the molar value.
